Protein sequences, listed by entry. Tags and fused reporters are not part of them.
UniProt P35222, whole entry: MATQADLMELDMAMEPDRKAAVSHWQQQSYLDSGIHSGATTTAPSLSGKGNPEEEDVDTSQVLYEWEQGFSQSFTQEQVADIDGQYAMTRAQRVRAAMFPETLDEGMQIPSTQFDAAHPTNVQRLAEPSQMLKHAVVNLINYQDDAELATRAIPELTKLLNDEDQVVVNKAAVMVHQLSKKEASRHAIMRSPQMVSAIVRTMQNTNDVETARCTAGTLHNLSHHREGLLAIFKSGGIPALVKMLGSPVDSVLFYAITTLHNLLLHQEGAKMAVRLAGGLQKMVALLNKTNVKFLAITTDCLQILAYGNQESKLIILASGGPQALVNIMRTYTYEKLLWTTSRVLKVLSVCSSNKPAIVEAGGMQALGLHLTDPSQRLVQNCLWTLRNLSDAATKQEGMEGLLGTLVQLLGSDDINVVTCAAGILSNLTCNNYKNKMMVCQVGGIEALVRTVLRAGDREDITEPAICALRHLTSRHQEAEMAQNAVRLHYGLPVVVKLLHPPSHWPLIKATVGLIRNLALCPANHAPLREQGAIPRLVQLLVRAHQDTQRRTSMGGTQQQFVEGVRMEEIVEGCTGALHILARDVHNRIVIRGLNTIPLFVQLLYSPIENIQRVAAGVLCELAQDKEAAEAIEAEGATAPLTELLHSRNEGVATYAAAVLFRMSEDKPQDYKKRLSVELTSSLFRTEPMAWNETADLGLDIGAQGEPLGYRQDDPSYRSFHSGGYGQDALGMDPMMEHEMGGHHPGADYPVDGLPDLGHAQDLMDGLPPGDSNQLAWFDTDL

According to US20240360179A1, “STAPLED PEPTIDES AND METHODS THEREOF” (FOG PHARMACEUTICALS, INC., priority 2021, published 2024):

How the values were obtained:
[1] = target: T1, full-length B-Catenin (Uniprot ID P35222) (Homo sapiens, UniProt P35222); assay: biochemical; format: binding; settings: beta-Catenin FP IC50 (nM), competition fluorescence polarization
T1 construct: 10 nM full-length B-Catenin (Uniprot ID P35222)

[2] = target: beta-catenin/TCF4 interaction (Homo sapiens, UniProt P35222); assay: cell-based; design: host or cells: HEK293; settings: NanoBRET Abs IC50 (uM)

SMILES | IC50 [1] | IC50 [2] | IC50 ([2]; absolute IC50)
CC(=O)N1CCC[C@]12CC=CCCCC1(CCCC=CCCCOC(=O)N3CC[C@@]4(C3)NC(=O)[C@H](CCCCNC(=O)CC[C@@H](C(=O)N[C@@H](C)C(N)=O)NC(=O)[C@H](Cc3csc5ccccc35)NC(=O)[C@H](Cc3ccccc3C(F)(F)F)NC4=O)NC(=O)[C@H](Cc3ccccc3)NC(=O)[C@H](C)NC(=O)C(C)(C)NC(=O)[C@H](Cc3ccccc3C(=O)O)NC(=O)[C@H](CC(=O)O)NC1=O)NC(=O)[C@H](CC(C)(C)C)NC(=O)[C@H](CC(=O)O)NC2=O (relative stereo) [I-197, Ac-PL3-Asp-Npg-B5-Asp-2COOHF-Aib-Ala-Phe-Lys*3-PyrS2-2F3MeF-BztA-GlnR*3-Ala-NH2] | < 50 nM | 1.5 to 3 µM | –
CC(=O)N1CCC[C@]12CC=CCCCC1(CCCC=CCCCOC(=O)N3CC[C@@]4(C3)NC(=O)[C@@H](CCCCNC(=O)CC[C@@H](C(N)=O)NC(=O)[C@H](Cc3csc5ccccc35)NC(=O)[C@H](Cc3ccsc3)NC4=O)NC(=O)[C@H](Cc3ccccc3)NC(=O)[C@H](C)NC(=O)[C@H](C)NC(=O)[C@H](CC(=O)O)NC(=O)[C@H](CC(=O)O)NC1=O)NC(=O)[C@H](CC(C)C)NC(=O)[C@H](CC(=O)O)NC2=O (single isomer, unassigned) [I-1, Ac-PL3-Asp-Leu-B5-Asp-Asp-Ala-Ala-Phe-dLys*3-PyrS2-3Thi-BztA-GlnR*3-NH2] | < 50 nM | > 10 µM | –
CC(=O)N1CCC[C@]12CCCCCCC1(CCCCCCCCOC(=O)N3CC[C@@]4(C3)NC(=O)[C@H](CCCCNC(=O)CC[C@@H](C(=O)N[C@@H](C)C(N)=O)NC(=O)[C@H](Cc3csc5ccccc35)NC(=O)[C@H](Cc3ccsc3)NC4=O)NC(=O)[C@H](Cc3ccccc3)NC(=O)[C@H](C)NC(=O)[C@H](C)NC(=O)[C@H](Cc3cccc(C(=O)O)c3)NC(=O)[C@H](CC(=O)O)NC1=O)NC(=O)[C@H](CC(C)(C)C)NC(=O)[C@H](CC(=O)O)NC2=O (relative stereo) [I-76, Ac-PL3-Asp-Npg-B5-Asp-3COOHF-Ala-Ala-Phe-Lys*3-PyrS2-3Thi-BztA-GlnR*3-Ala-NH2] | < 50 nM | 3 to 10 µM | –
CC(=O)N1CCC[C@]12CC=CCCCC1(CCCC=CCCCOC(=O)N3CC[C@@]4(C3)NC(=O)[C@H](CCCCNC(=O)CC[C@@H](C(=O)N[C@@H](C)C(N)=O)NC(=O)[C@H](Cc3csc5ccccc35)NC(=O)[C@H](Cc3ccccc3C(F)(F)F)NC4=O)NC(=O)[C@H](Cc3ccccc3)NC(=O)[C@H](C)NC(=O)[C@H](CC(C)C)NC(=O)[C@H](CN(CC(=O)O)CC(F)(F)F)NC(=O)[C@H](CC(=O)O)NC1=O)NC(=O)[C@H](CC(C)(C)C)NC(=O)[C@H](CC(=O)O)NC2=O (relative stereo) [I-122, Ac-PL3-Asp-Npg-B5-Asp-TfeGA-Leu-Ala-Phe-Lys*3-PyrS2-2F3MeF-BztA-GlnR*3-Ala-NH2] | < 50 nM | > 10 µM | –
CC(=O)N1CCC[C@]12CC=CCCCC1(CCCC=CCCCOC(=O)N3CC[C@@]4(C3)NC(=O)[C@H](CCCCNC(=O)CC[C@@H](C(=O)N[C@@H](C)C(N)=O)NC(=O)[C@H](Cc3csc5ccccc35)NC(=O)[C@H](Cc3ccsc3)NC4=O)NC(=O)[C@H](Cc3ccccc3)NC(=O)[C@H](C)NC(=O)C(C)(C)NC(=O)[C@H](Cc3cccc(C(=O)O)c3)NC(=O)[C@H](CC(=O)O)NC1=O)NC(=O)C1(CCCC1)NC(=O)[C@H](CC(=O)O)NC2=O (relative stereo) [I-252, Ac-PL3-Asp-CyLeu-B5-Asp-3COOHF-Aib-Ala-Phe-Lys*3-PyrS2-3Thi-BztA-GlnR*3-Ala-NH2] | < 50 nM | 3 to 10 µM | –
CC(=O)N1CCC[C@]12CC=CCCCC1(CCCC=CCCCOC(=O)N3CC[C@@]4(C3)NC(=O)[C@H](CCCCNC(=O)CC[C@@H](C(=O)N[C@@H](C)C(N)=O)NC(=O)[C@H](Cc3csc5ccccc35)NC(=O)[C@H](Cc3ccsc3)NC4=O)NC(=O)[C@H](Cc3ccccc3)NC(=O)[C@H](C)NC(=O)C(C)(C)NC(=O)[C@H](Cc3cccc(C(=O)O)c3)NC(=O)[C@H](CC(=O)O)NC1=O)NC(=O)[C@H](CC1CCCC1)NC(=O)[C@H](CC(=O)O)NC2=O (relative stereo) [I-251, Ac-PL3-Asp-CypA-B5-Asp-3COOHF-Aib-Ala-Phe-Lys*3-PyrS2-3Thi-BztA-GlnR*3-Ala-NH2] | < 50 nM | 1.5 to 3 µM | –
C[C@H](NC(=O)[C@@H]1CCC(=O)NCCCC[C@@H]2NC(=O)[C@H](Cc3ccccc3)NC(=O)[C@H](C)NC(=O)C(C)(C)NC(=O)[C@H](Cc3cccc(C(=O)O)c3)NC(=O)[C@H](CC(=O)O)NC(=O)[C@](C)(NC(=O)[C@@H]3CN(C(=O)c4ccccc4)CCCCCC(=O)N4CCC[C@@]4(C)C(=O)N[C@@H](CC(=O)O)C(=O)N3)CCCCCCCCOC(=O)N3CC[C@@](C3)(NC2=O)C(=O)N[C@@H](Cc2ccsc2)C(=O)N[C@@H](Cc2csc3ccccc23)C(=O)N1)C(N)=O (relative stereo) [I-563, 4pentenyl-MePro-Asp-[Phc][Allyl]Dap-R5-Asp-3COOHF-Aib-Ala-Phe-Lys*3-PyrS2-3Thi-BztA-GlnR*3-Ala-NH2] | < 50 nM | – | > 10 µM
CC(=O)N1CCC[C@]12CC=CCCCC1(CCCC=CCCCOC(=O)N3CC[C@@]4(C3)NC(=O)[C@H](CCCCNC(=O)CC[C@@H](C(=O)N[C@@H](C)C(N)=O)NC(=O)[C@H](Cc3csc5ccccc35)NC(=O)[C@H](Cc3ccccc3C(F)(F)F)NC4=O)NC(=O)[C@H](Cc3ccccc3)NC(=O)[C@H](C)NC(=O)C(C)(C)NC(=O)[C@H](CCC(N)=O)NC(=O)[C@H](CC(=O)O)NC1=O)NC(=O)[C@H](CC(C)(C)C)NC(=O)[C@H](CC(=O)O)NC2=O (relative stereo) [I-201, Ac-PL3-Asp-Npg-B5-Asp-Gln-Aib-Ala-Phe-Lys*3-PyrS2-2F3MeF-BztA-GlnR*3-Ala-NH2] | 50 to 200 nM | 3 to 10 µM | –
CC(=O)N1CCC[C@]12CC=CCCCC1(CCCC=CCCCOC(=O)N3CC[C@@]4(C3)NC(=O)[C@H](CCCCNC(=O)CC[C@@H](C(N)=O)NC(=O)[C@H](Cc3csc5ccccc35)NC(=O)[C@H](Cc3ccsc3)NC4=O)NC(=O)[C@H](Cc3ccccc3)NC(=O)[C@H](C)NC(=O)[C@H](C)NC(=O)[C@H](Cc3cccc(C(=O)O)c3)NC(=O)[C@H](CC(=O)O)NC1=O)NC(=O)[C@H](CC(C)(C)C)NC(=O)[C@H](CC(=O)O)NC2=O (relative stereo) [I-32, Ac-PL3-Asp-Npg-B5-Asp-3COOHF-Ala-Ala-Phe-Lys*3-PyrS2-3Thi-BztA-GlnR*3-NH2] | < 50 nM | < 1.5 µM | –
CC(=O)N1CCC[C@]12CC=CCCCC1(CCCC=CCCCOC(=O)N3CC[C@@]4(C3)NC(=O)[C@H](CCCCNC(=O)CC[C@@H](C(=O)N[C@@H](C)C(N)=O)NC(=O)[C@H](Cc3csc5ccccc35)NC(=O)[C@H](Cc3ccccc3C(F)(F)F)NC4=O)NC(=O)[C@H](Cc3ccccc3)NC(=O)[C@H](C)NC(=O)C(C)(C)NC(=O)[C@H](CC(=O)O)NC(=O)[C@H](CC(=O)O)NC1=O)NC(=O)[C@H](CC(C)(C)C)NC(=O)[C@H](CC(=O)O)NC2=O (relative stereo) [I-199, Ac-PL3-Asp-Npg-B5-Asp-Asp-Aib-Ala-Phe-Lys*3-PyrS2-2F3MeF-BztA-GlnR*3-Ala-NH2] | < 50 nM | 3 to 10 µM | –

Now from value to molecule:

IC50 [1] | IC50 [2] | IC50 ([2]; absolute IC50) | SMILES
< 50 nM | – | 1.5 to 3 µM | CC(=O)N1CCC[C@]12CC=CCCCC1(CCCC=CCCCOC(=O)N3CC[C@@]4(C3)NC(=O)[C@H](CCCCNC(=O)CC[C@@H](C(=O)NC(C)(C)C(=O)N[C@@H](CO)C(N)=O)NC(=O)[C@H](Cc3csc5ccccc35)NC(=O)[C@H](Cc3ccsc3)NC4=O)NC(=O)[C@H](Cc3ccccc3)NC(=O)[C@H](C)NC(=O)C(C)(C)NC(=O)[C@H](Cc3cccc(C(=O)O)c3)NC(=O)[C@H](CC(=O)O)NC1=O)NC(=O)[C@H](CC(C)(C)C)NC(=O)[C@H](CC(=O)O)NC2=O (relative stereo) [I-400, Ac-PL3-Asp-Npg-B5-Asp-3COOHF-Aib-Ala-Phe-Lys*3-PyrS2-3Thi-BztA-GlnR*3-Aib-Ser-NH2]
< 50 nM | 3 to 10 µM | – | CC(=O)N1CCC[C@]12CC=CCCCC1(CCCC=CCCCOC(=O)N3CC[C@@]4(C3)NC(=O)[C@H](CC3CCN(CC3)C(=O)CC[C@@H](C(=O)N[C@@H](C)C(N)=O)NC(=O)[C@H](Cc3csc5ccccc35)NC(=O)[C@H](Cc3ccsc3)NC4=O)NC(=O)[C@H](Cc3ccccc3)NC(=O)[C@H](C)NC(=O)[C@H](C)NC(=O)[C@H](Cc3cccc(C(=O)O)c3)NC(=O)[C@H](CC(=O)O)NC1=O)NC(=O)[C@H](CC(C)(C)C)NC(=O)[C@H](CC(=O)O)NC2=O (relative stereo) [I-256, Ac-PL3-Asp-Npg-B5-Asp-3COOHF-Ala-Ala-Phe-4PipA*3-PyrS2-3Thi-BztA-GlnR*3-Ala-NH2]
< 50 nM | – | > 10 µM | C[C@H](NC(=O)[C@@H]1CCC(=O)NCCCC[C@@H]2NC(=O)[C@H](Cc3ccccc3)NC(=O)[C@H](C)NC(=O)C(C)(C)NC(=O)[C@H](Cc3cccc(C(=O)O)c3)NC(=O)[C@H](CC(=O)O)NC(=O)[C@](C)(NC(=O)[C@@H]3CN(C(=O)C4CCCCC4)CCCCCCC(=O)N4CCC[C@@]4(C)C(=O)N[C@@H](CC(=O)O)C(=O)N3)CCCCCCCCOC(=O)N3CC[C@@](C3)(NC2=O)C(=O)N[C@@H](Cc2ccsc2)C(=O)N[C@@H](Cc2csc3ccccc23)C(=O)N1)C(N)=O (relative stereo) [I-565, 5hexenyl-MePro-Asp-[CyCO][Allyl]Dap-R5-Asp-3COOHF-Aib-Ala-Phe-Lys*3-PyrS2-3Thi-BztA-GlnR*3-Ala-NH2]
< 50 nM | 1.5 to 3 µM | – | CC(=O)N1CCC[C@]12CC=CCCCC1(CCCC=CCCCOC(=O)N3CC[C@@]4(C3)NC(=O)[C@H](CCCCNC(=O)CC[C@@H](C(=O)N[C@@H](C)C(N)=O)NC(=O)[C@H](Cc3csc5ccccc35)NC(=O)[C@H](Cc3ccccc3C(F)(F)F)NC4=O)NC(=O)[C@H](Cc3ccccc3)NC(=O)[C@H](C)NC(=O)C(C)(C)NC(=O)[C@H](Cc3cccc(C(=O)O)c3)NC(=O)[C@H](CC(=O)O)NC1=O)NC(=O)[C@H](CC(C)(C)C)NC(=O)[C@H]([C@H](C)C(=O)O)NC2=O (relative stereo) [I-288, Ac-PL3-SbMeAsp-Npg-B5-Asp-3COOHF-Aib-Ala-Phe-Lys*3-PyrS2-2F3MeF-BztA-GlnR*3-Ala-NH2]
